Test results reported in patent publication US8372874B2, “Compounds which selectively modulate the CB2 receptor” (Boehringer Ingelheim International GmbH, priority 2008, dated 2013).

By UniProt entry, the sequences of proteins in these tests, tags left out.
UniProt P21554, whole entry: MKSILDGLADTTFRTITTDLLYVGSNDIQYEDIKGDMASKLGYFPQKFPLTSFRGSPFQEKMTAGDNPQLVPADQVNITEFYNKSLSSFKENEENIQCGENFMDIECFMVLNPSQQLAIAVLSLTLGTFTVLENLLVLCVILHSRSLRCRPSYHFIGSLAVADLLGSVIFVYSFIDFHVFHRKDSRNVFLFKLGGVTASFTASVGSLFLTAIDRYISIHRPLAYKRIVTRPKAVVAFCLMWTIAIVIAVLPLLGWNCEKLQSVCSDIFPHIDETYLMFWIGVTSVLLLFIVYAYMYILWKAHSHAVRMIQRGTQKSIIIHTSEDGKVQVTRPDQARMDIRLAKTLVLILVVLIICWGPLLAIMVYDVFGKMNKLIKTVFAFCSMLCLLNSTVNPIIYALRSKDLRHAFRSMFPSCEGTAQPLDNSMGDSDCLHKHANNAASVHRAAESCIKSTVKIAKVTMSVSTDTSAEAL
UniProt P34972, whole entry: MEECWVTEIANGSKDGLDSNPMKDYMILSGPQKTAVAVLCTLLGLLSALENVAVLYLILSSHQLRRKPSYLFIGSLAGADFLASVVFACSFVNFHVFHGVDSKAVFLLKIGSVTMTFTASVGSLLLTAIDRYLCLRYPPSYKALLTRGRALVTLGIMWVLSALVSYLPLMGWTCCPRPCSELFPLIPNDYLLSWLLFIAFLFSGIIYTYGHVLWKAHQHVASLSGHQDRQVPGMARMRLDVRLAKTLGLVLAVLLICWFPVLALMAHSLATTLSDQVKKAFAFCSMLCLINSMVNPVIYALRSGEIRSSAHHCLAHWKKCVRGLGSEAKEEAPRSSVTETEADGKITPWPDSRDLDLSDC

Legend:
human CB1R = human CB1R (Homo sapiens, UniProt P21554); assay: CB1R mediated modulation of cAMP synthesis; type: cell-based; settings: read-out: CB1 EC50; CHO cells expressing human CB1R; inhibition of forskolin-stimulated cAMP synthesis
Protocol: C. CB1R Mediated Modulation of cAMP Synthesis:
Compounds of the invention are evaluated for their CB1 agonist or inverse agonistic activity in accordance with the following experimental method.
(§1) CHO cells expressing human CB1R (Euroscreen) are plated at a density of 5000 cells per well in 384 well plates and incubated overnight at 37° C. After removing the media, the cells are treated with test compounds diluted in stimulation buffer containing 1 mM IBMX, 0.25% BSA and 10 uM Forskolin. The assay is incubated for 30 minutes at 37° C. Cells are lysed and the cAMP concentration is measured using DiscoverX-XS cAMP kit, following the manufacturer's protocol. In this setting, agonists will decrease forskolin induced production of cAMP while inverse agonists will further increase forskolin induced production of cAMP. EC50 of agonists are calculated as follows. The maximal amount of cAMP produced by forskolin compared to the level of cAMP inhibited by 1 uM CP55940 is defined as 100%. The EC50 value of each test compound is determined as the concentration at which 50% of the forskolin-stimulated cAMP synthesis is inhibited. Data is analyzed using a four-parameter logistic model. (Model 205 of XLfit 4.0).

human CB2R = human CB2R (Homo sapiens, UniProt P34972); assay: CB2R mediated modulation of cAMP synthesis; type: cell-based; settings: read-out: CB2 EC50; CHO cells expressing human CB2R; inhibition of forskolin-stimulated cAMP synthesis
Protocol: B. CB2R Mediated Modulation of cAMP Synthesis:
Compounds of the invention are evaluated for their CB2 agonist or inverse agonistic activity in accordance with the following experimental method.
as §1, with “CB2R” for “CB1R”

**Q.** For CC(C)(C)Cc1nc2cc(S(=O)(=O)C(C)(C)C(=O)Nc3cc(C(C)(C)CO)on3)ccc2n1CC1CC1, which EC50 (human CB1R) is on record?
**A.** > 20 µM

**Q.** What about the EC50 (human CB2R) of the same compound?
**A.** 0.021 µM

**Q.** COCC(C)(C)c1cc(NC(=O)C(C)(C)S(=O)(=O)c2ccc3c(c2)nc(CC(C)(C)C)n3CC2CC2)no1 was tested. Which EC50 (human CB1R) did it give?
**A.** > 20 µM

**Q.** And the EC50 (human CB2R)?
**A.** 0.02 µM

**Q.** Which EC50 (human CB1R) does the source give for CC(C)(COC(=O)C(C)(C)S(=O)(=O)CCCC(F)(F)F)c1cc(NC(=O)C(C)(C)S(=O)(=O)CCCC(F)(F)F)on1 here?
**A.** > 50 µM

**Q.** And the EC50 (human CB2R)?
**A.** 0.402 µM

**Q.** What does the source list for CC(C)(C)Cc1nc2cc(S(=O)(=O)C(C)(C)C(=O)Nc3cc(C(C)(C)CO)no3)ccc2n1CC1CC1?
**A.** EC50 (human CB1R): > 20 µM; EC50 (human CB2R): 0.008 µM

**Q.** Which results are given for COCC(C)(C)c1cc(NC(=O)C(C)(C)S(=O)(=O)c2ccc3c(c2)nc(CC(C)(C)C)n3CC2CC2)on1?
**A.** EC50 (human CB1R): > 20 µM; EC50 (human CB2R): 0.0025 µM
